Data reported in patent publication US10851082B2, “Substituted aromatic n-heterocyclic compounds as inhibitors of mitogen-activated protein kinase interacting kinase 1 (MNK1) and 2 (MNK2)” (Northwestern University, priority 2015, dated 2020).
Like-named read-outs stand apart in the source and are kept apart here.

Assays:
[1] = target: Mnk1; experiment: Cellular inhibition of Mnk1, flow cytometry of phospho-eIF-4E (Ser209), U937 cells; type: cell-based; settings: read-out: U937 pEIF4E IC50, phospho-eIF-4E Ser209, flow cytometry
[2] = target: Mnk1 (Homo sapiens (Human), UniProt Q9BUB5); experiment: Mnk1 kinase inhibition, ADP-Glo ADP monitoring assay; type: biochemical
[3] = target: Mnk1; experiment: Cellular inhibition of Mnk1, flow cytometry of phospho-eIF-4E (Ser209), MV4-11 cells; type: cell-based; settings: read-out: MV4-11 pEIF4E IC50, phospho-eIF-4E Ser209, flow cytometry

| IC50 [1] [nM] | IC50 ([2]; read-out: Mnk1 IC50) [nM] | IC50 [3] [nM] | IC50 ([2]; unit inferred, read-out: Mnk1 IC50) [nM] | IC50 ([2]; read-out: Mnk1 inhibition IC50 (+,++,+++)) [nM] | SMILES |
| --- | --- | --- | --- | --- | --- |
|  |  |  | 480 |  | Brc1cnc(NCCc2ccncc2)nc1-n1ccnc1 [NUCC-0196229] |
|  |  |  |  | < 1000 | N#Cc1cnc(-n2cnc3ccccc32)nc1NCCCc1ccncc1 [NUCC-0200914] |

The next lines start with the molecule.

| SMILES | IC50 [1] [nM] | IC50 ([2]; read-out: Mnk1 IC50) [nM] | IC50 [3] [nM] | IC50 ([2]; unit inferred, read-out: Mnk1 IC50) [nM] | IC50 ([2]; read-out: Mnk1 inhibition IC50 (+,++,+++)) [nM] |
| --- | --- | --- | --- | --- | --- |
| c1ccc2c(c1)ncn2-c1ccnc(NC2CCOC2)n1 (stereo not drawn) [NUCC-0125583] | 5.5 | 40 | 7 |  |  |
| c1ccc2c(c1)ncn2-c1ccnc(N[C@H]2CCOC2)n1 [NUCC-0176148] | 100 | 190 | 37 |  |  |
| c1ccc2c(c1)ncn2-c1ccnc(N[C@@H]2CCOC2)n1 [NUCC-0176149] |  | 540 |  |  |  |
